Columns and labels:
GLP-1 receptor = target: T1, GLP-1 receptor (Rattus norvegicus, UniProt P32301); conditions: read-out: Receptor Binding Assay GLP-1
T1 construct: the receptor source is RINm5F cell membranes; endogenous in cells; host or cells: RINm5F cell membranes
T1 sequence (P32301 22-463): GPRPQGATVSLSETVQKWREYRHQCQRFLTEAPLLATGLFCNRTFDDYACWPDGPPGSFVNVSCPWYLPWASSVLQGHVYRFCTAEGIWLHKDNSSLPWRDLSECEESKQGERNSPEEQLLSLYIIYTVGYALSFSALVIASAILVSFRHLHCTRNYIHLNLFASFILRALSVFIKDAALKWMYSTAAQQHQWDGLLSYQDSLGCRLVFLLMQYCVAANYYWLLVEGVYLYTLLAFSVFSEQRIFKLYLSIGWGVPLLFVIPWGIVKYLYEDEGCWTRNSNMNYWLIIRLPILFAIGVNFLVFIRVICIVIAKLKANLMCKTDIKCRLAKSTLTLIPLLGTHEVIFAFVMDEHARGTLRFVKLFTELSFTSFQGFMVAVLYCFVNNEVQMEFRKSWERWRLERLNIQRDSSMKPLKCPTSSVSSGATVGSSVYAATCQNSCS

calcitonin receptor = conditions: read-out: IC50 in a CT receptor binding assay

| Substance | IC50 (GLP-1 receptor) | IC50 (calcitonin receptor) |
| --- | --- | --- |
| ^29βAla-βAla-Exendin(1-28),hAmylin(1-7)-^11,18Arg-sCt(8-27)-hAmylin(33-37) [Compound 14] | 0.3 nM | – |
| ^29GlyGlyGly-Exendin(1-28),hAmylin(1-7)-^11,18Arg-sCt(8-27)-hAmylin(33-37) [Compound 15] | 0.4 nM | – |
| DF(P-CH2SO3)MGWNMFGKR KCNTATCATQRLANELVRLQTYPRTNVGSNTY [SEQ ID NO: 398] | – | 0.044 nM |
